Values of other authors in patent US20100330171A1, “Dietary Supplement for Eye Health” (priority 2008, published 2010).

Target: T1, MMP-2 (Homo sapiens, UniProt P08253)
T1 sequence (P08253 110-660): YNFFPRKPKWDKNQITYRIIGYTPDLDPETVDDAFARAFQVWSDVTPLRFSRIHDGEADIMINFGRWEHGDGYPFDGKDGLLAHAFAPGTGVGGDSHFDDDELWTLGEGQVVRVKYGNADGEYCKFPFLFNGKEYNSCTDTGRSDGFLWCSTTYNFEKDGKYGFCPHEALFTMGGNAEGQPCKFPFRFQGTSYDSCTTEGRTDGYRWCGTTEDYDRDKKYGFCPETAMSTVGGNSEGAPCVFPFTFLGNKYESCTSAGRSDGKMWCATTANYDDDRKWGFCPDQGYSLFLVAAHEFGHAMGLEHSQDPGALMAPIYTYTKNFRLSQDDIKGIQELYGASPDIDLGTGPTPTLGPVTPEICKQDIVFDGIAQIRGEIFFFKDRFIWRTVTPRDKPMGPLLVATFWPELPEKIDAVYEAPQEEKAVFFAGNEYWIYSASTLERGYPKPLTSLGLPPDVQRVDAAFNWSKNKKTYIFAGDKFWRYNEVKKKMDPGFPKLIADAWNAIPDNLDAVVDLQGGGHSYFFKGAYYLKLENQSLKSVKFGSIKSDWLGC

Substance: Epigallocatechin-3-gallate [EGCG]
- inhibition of MMP-2: inhibits
